Results taken from US9487570B2, “Glucagon like peptide analogs, composition, and method of use” (BETTA PHARMACEUTICALS CO., LTD, priority 2010, dated 2016).

The chains behind the UniProt entries cited, without tags or fusion partners.
UniProt P27487, whole entry, species assumed: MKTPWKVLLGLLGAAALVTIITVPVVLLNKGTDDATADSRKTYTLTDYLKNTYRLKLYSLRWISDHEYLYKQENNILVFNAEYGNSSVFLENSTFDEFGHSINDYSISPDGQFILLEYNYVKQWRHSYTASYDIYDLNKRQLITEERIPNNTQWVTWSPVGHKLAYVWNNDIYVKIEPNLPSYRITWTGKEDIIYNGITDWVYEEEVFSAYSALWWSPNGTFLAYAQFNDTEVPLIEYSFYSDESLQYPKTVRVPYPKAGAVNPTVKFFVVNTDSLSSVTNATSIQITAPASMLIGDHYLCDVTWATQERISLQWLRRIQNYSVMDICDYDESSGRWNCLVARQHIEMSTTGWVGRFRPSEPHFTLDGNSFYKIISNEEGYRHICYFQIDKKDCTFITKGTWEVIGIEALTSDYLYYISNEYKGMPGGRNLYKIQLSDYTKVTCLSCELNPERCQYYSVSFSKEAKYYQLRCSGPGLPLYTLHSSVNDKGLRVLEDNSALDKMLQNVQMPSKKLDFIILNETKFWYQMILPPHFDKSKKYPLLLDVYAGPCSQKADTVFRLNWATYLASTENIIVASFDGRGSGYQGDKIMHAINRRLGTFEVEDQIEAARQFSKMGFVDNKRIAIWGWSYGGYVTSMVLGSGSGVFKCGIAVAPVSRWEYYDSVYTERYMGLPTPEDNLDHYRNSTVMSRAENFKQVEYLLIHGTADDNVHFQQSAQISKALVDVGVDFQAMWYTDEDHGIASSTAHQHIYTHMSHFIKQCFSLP

What follows are compounds tested against DPP-IV (Homo sapiens, UniProt P27487) (assay: in vitro). Details: isolated enzyme dpp iv, pH 7.4.

SMILES	remaining at 1 h, 0.5 nmol/L [%]	remaining at 24 h, 0.5 nmol/L [%]
CC[C@H](C)[C@H](NC(=O)[C@H](Cc1ccccc1)NC(=O)[C@H](CCC(=O)O)NC(=O)[C@H](CCCCN)NC(=O)[C@H](C)NC(=O)[C@H](C)NC(=O)[C@H](CCC(N)=O)NC(=O)[C@H](CCC(=O)O)NC(=O)[C@H](CCC(=O)O)NC(=O)[C@H](CC(C)C)NC(=O)[C@H](Cc1ccc(O)cc1)NC(=O)[C@H](CO)NC(=O)[C@H](CO)NC(=O)[C@@H](NC(=O)[C@H](CC(=O)O)NC(=O)[C@H](CO)NC(=O)[C@@H](NC(=O)[C@H](Cc1ccccc1)NC(=O)[C@@H](NC(=O)CNC(=O)[C@@H](/C=C(\F)[C@H](C)NC(=O)[C@@H](N)Cc1c[nH]cn1)CCC(=O)O)[C@@H](C)O)[C@@H](C)O)C(C)C)C(=O)N[C@@H](C)C(=O)N[C@@H](Cc1c[nH]c2ccccc12)C(=O)N[C@@H](CC(C)C)C(=O)N[C@H](C(=O)N[C@@H](CCCCN)C(=O)NCC(=O)N[C@@H](CCCNC(=N)N)C(=O)NCC(N)=O)C(C)C [[Q-linker-b8-9, Glu22]GLP-1-(7-37)-peptide]	98	92
CC[C@H](C)[C@H](NC(=O)[C@H](Cc1ccccc1)NC(=O)[C@H](CCC(=O)O)NC(=O)[C@H](CCCCN)NC(=O)[C@H](C)NC(=O)[C@H](C)NC(=O)[C@H](CCC(N)=O)NC(=O)[C@H](CCC(=O)O)NC(=O)[C@H](CCC(=O)O)NC(=O)[C@H](CC(C)C)NC(=O)[C@H](Cc1ccc(O)cc1)NC(=O)[C@H](CO)NC(=O)[C@H](CO)NC(=O)[C@@H](NC(=O)[C@H](CC(=O)O)NC(=O)[C@H](CO)NC(=O)[C@@H](NC(=O)[C@H](Cc1ccccc1)NC(=O)[C@@H](NC(=O)CNC(=O)[C@H](CCC(=O)O)N[C@@H](CNC(=O)[C@@H](N)Cc1c[nH]cn1)C(F)(F)F)[C@@H](C)O)[C@@H](C)O)C(C)C)C(=O)N[C@@H](C)C(=O)N[C@@H](Cc1c[nH]c2ccccc12)C(=O)N[C@@H](CC(C)C)C(=O)N[C@H](C(=O)N[C@@H](CCCCN)C(=O)NCC(=O)N[C@@H](CCCNC(=N)N)C(=O)NCC(N)=O)C(C)C [[Q-linker-c8, Glu22]GLP-1-(7-37)-peptide]	98	90
CC[C@H](C)[C@H](NC(=O)[C@H](Cc1ccccc1)NC(=O)[C@H](CCC(=O)O)NC(=O)[C@H](CCCCN)NC(=O)[C@H](C)NC(=O)[C@H](C)NC(=O)[C@H](CCC(N)=O)NC(=O)[C@H](CCC(=O)O)NC(=O)[C@H](CCC(=O)O)NC(=O)[C@H](CC(C)C)NC(=O)[C@H](Cc1ccc(O)cc1)NC(=O)[C@H](CO)NC(=O)[C@H](CO)NC(=O)[C@@H](NC(=O)[C@H](CC(=O)O)NC(=O)[C@H](CO)NC(=O)[C@@H](NC(=O)[C@H](Cc1ccccc1)NC(=O)[C@@H](NC(=O)CNC(=O)[C@H](CCC(=O)O)CC(=O)[C@H](C)NC(=O)[C@@H](N)Cc1c[nH]cn1)[C@@H](C)O)[C@@H](C)O)C(C)C)C(=O)N[C@@H](C)C(=O)N[C@@H](Cc1c[nH]c2ccccc12)C(=O)N[C@@H](CC(C)C)C(=O)N[C@H](C(=O)N[C@@H](CCCCN)C(=O)NCC(=O)N[C@@H](CCCNC(=N)N)C(=O)NCC(N)=O)C(C)C [[Q-linker-e8-9, Glu22]GLP-1-(7-37)-peptide]	98	91
